The values that follow come from patent publication US20100184820A1, “COMBINATIONS COMPRISING STAUROSPORINES” (priority 2006, published 2010).

For the test, the system named is HMC-1.1 cells. Nature of the test: 3H-thymidine incorporation assay. It is filed as cell-based, human.

Consider `Nc1nc(Cl)nc2c1ncn2[C@H]1C[C@H](O)[C@@H](CO)O1` [2CdA, 2-chlorodeoxyadenosine], for which the “cell growth / proliferation (in words)” value is “no significant effect”.
